Assay results as given in US9242969B2, “Biaryl amide compounds as kinase inhibitors” (Novartis AG, priority 2013, dated 2016).

Chains of the proteins cited; added tags and fusions are not shown. Residues count along the entry.
UniProt P04049, 325-648 Y340E/Y341E: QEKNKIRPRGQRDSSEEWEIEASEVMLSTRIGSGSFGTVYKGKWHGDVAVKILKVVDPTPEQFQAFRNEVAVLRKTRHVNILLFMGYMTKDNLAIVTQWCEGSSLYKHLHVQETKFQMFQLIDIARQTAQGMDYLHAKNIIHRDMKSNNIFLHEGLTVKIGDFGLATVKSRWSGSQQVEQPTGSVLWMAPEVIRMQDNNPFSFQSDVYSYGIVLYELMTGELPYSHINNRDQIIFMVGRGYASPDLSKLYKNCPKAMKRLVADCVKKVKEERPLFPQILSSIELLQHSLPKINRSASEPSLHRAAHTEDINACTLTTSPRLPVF

Target: C-Raf TR (Δ1-324 deletion mutant with activating mutations) (Homo sapiens (Human), UniProt P04049, Y340E/Y341E)
Format: biochemical
Conditions: truncated C-Raf (Δ1-324), ATP 3 uM, 10 nM biotinylated MEK1 kinase dead

SMILES | IC50 [nM]
Cc1ccc(NC(=O)c2ccnc(C(C)(C)C#N)c2)cc1-c1cc(N2CCOCC2)ncn1 [Example 2, 2-(2-cyanopropan-2-yl)-N-(4-methyl-3-(6-morpholinopyrimidin-4-yl)phenyl)isonicotinamide] | 2.95
Cc1ccc(NC(=O)c2cccc(C(F)(F)F)c2)cc1-c1nc(N2CCOCC2)cc(N2CCOCC2)n1 [Example 13, N-(3-(4,6-dimorpholinopyrimidin-2-yl)-4-methylphenyl)-3-(trifluoromethyl)benzamide] | 0.533
Cc1ccc(NC(=O)c2cccc(C(F)(F)F)c2)cc1-c1cc(N2CCS(=O)(=O)CC2)nc(N2CCOCC2)n1 [Example 6, N-(3-(6-(1,1-dioxidothiomorpholino)-2-morpholinopyrimidin-4-yl)-4-methylphenyl)-3-(trifluoromethyl)benzamide] | 0.408
Cc1ccc(NC(=O)c2cccc(C(F)(F)F)c2)cc1-c1cc(N2CCOCC2)nc(N2CCOCC2)n1 [Example 10, N-(3-(2,6-dimorpholinopyrimidin-4-yl)-4-methylphenyl)-3-(trifluoromethyl)benzamide] | 0.118
